Biological target: glyceraldehyde-3-phosphate dehydrogenase (GAPDH) isolated from rabbit muscle (rabbit) (UniProt P46406)

Q: Which results are given for Aβ16 (peptide)?
A: death of SH-SY5Y cells (CytoTox-96) with Aβ peptide (6 μM) and GAPDH (30 μg/mL): 19.5%; death of SH-SY5Y cells (CytoTox-96) with Aβ peptide (6 μM), GAPDH (30 μg/mL) and tTG (5 μg/mL): 31.5%
